Measured values: patent US6319952A, “Compositions and methods for reversibly increasing permeability of biomembranes” (D-Pharm Ltd., priority 1997, dated 2001)

Assays:
[1] = test system: blood-brain barrier (BBB); assay: Effect of branched chain fatty acids on BBB permeability by qualitative Evan's Blue (EB) evaluation in rats; format: in vivo, rat (male Sprague-Dawley); conditions: 625 μM, 45 min, intracarotid infusion; also: key: -: Minus signs represents no staining; +: four degrees of Evan's Blue extravasation according to Rapoport et al; ++: four degrees of Evan's Blue extravasation according to Rapoport et al; +++: three plus signs represent maximal staining
Experimental: Evaluation of Effect of Branched Fatty Acids on Blood-brain Barrier Permeability
The experiments were carried out on male Sprague-Dawley rats weighing 250-320 gr. They were anesthetized with Rampun-Imalgen. The right common carotid artery was exposed.
The test compounds were dissolved in 0.1M phosphate buffered physiological saline (pH=7.4) at the following test concentrations: 1.6; 8; 20; 40; 200 and 1000 μg/ml. […] The resulting pH of the test solutions was in the range of 8.0 to 8.5, and contols for the pH effect were performed up to pH 9.
The test compound was infused into the right common carotid artery at a rate of 6 ml/min. for 30 s. The control rats were infused with buffer. Evan's Blue (EB) solution at a concentration of […] (2 g Evan's Blue, 0.9 g NaCl in 100 ml water) was injected intravenously 50 minutes prior to the termination of the experiment.
In the case of 45 min experiment, five minutes prior to the infusion of the tested material, 4 ml/kg body wt dose of Evans Blue solution was injected intravenously.
At the end of the experimental time period the animals were perfused with 100 ml of saline solution through the heart and decapitated. […]

[2] = test system: ipsilateral hemisphere of the brain; assay: Methotrexate content of brains of rats pretreated with M3,14 (DP-BFA); format: in vivo, rat

Row | SMILES | Visual EB [1] | Methotrexate content, ipsilateral, control ([2]; 0 min) | Methotrexate content, ipsilateral, control ([2]; 30 min) | Methotrexate content, ipsilateral, control ([2]; 60 min) | Methotrexate content, ipsilateral, control ([2]; 90 min) | Methotrexate content, ipsilateral, control ([2]; 120 min) | Methotrexate content, ipsilateral, control ([2]; 150 min) | Methotrexate content, ipsilateral, control ([2]; 180 min) | Methotrexate content, ipsilateral, control ([2]; 210 min)
1 | CCCC(CCC)C(=O)O [M3/3, reference compound] | - |  |  |  |  |  |  |  | 
2 | CN(Cc1cnc2nc(N)nc(N)c2n1)c1ccc(C(=O)N[C@@H](CCC(=O)O)C(=O)O)cc1 [Methotrexate, methotrexate] |  | 0 | 0.027 | 0.049 | 0.095 | 0.095 | 0.109 | 0.19 | 0.218
